Only a part of the results on these compounds is given; other tests are left out.
How the values were obtained:
[1] = tested on: Tg (kdr:EGFP) zebrafish embryos; assay: Analysis of vasodilation in zebrafish embryos (dorsal aorta diameter); format: in vivo; settings: 3-dpf KDR zebrafish, 30 min; 50 μM DNIC-1b, 50 μM DNIC-2a, 200 μM SNP; control 21.2 ± 0.2
[2] = tested on: AB (wild type) zebrafish embryos; assay: Analysis of myocardial contractility and cardiac output in zebrafish embryos; format: in vivo
WT-AB zebrafish embryos = assay: Toxicity test of DNIC in zebrafish embryos; settings: 50 μM DNIC, 200 μM SNP
[3] = incubated 30 minutes on day 3, n = 300

sodium nitroprusside
Vessel Diameter (dorsal aorta diameter) [1]: 25.1±0.8 μm | change of short-axis diameter of the heart and ventricular volume at end diastole (ED) ([2]; 50 μM DNIC-1b, 200 μM SNP, 30 minutes): significant increase | Short Axis Diameter ED(Dd) ([2]; end diastole, 30 min, 50 μM DNIC-1b, 50 μM DNIC-2a, 200 μM SNP, 5 μg/mL epinephrine, control 82.2 ± 2.0): 86.4 ± 1.5 μm | Ventricular Volume ED ([2]; end diastole, prolate spheroid assumed, same treatments, control 0.55 ± 0.02): 0.62 ± 0.06 nL | Short Axis Diameter ES(Ds) ([2]; end systole, 30 min, 50 μM DNIC-1b, 50 μM DNIC-2a, 200 μM SNP, 5 μg/mL epinephrine, control 70.4 ± 2.5): 71.5 ± 1.7 μm | Ventricular Volume ES ([2]; end systole, prolate spheroid assumed, same treatments, control 0.33 ± 0.02): 0.32 ± 0.01 nL | Cardiac Output ([2]; heart rate × (ED volume − ES volume), same treatments, control 25.9 ± 4.5): 42.8 ± 8.2 nL/min | Ventricular Volume ED-ES ([2]; same treatments, control 0.21 ± 0.02): 0.30 ± 0.06 nL | Heart Rate ([2]; same treatments, control 124 ± 4): 143 ± 5 bpm | acute toxicity on zebrafish embryo (WT-AB zebrafish embryos; 3-dpf zebrafish, 30 minutes): no acute toxicity | Survival rate of zebrafish, Day 3 (WT-AB zebrafish embryos; [3]): 100 ± 0.0% | Survival rate of zebrafish, Day 4 (WT-AB zebrafish embryos; [3]): 100 ± 0.0% | Survival rate of zebrafish, Day 5 (WT-AB zebrafish embryos; [3]): 99.2 ± 1.4%
